Values of other authors as cited in US20060099157A1, “Ether alcohols used as solvents and emulsifiers and dispersions containing said ether alcohols” (IFAC GmbH & Co. KG, priority 2002, published 2006).

Conditions: cited from earlier work

In the case of `CCCCC(CC)COC(=O)c1ccc(Nc2nc(Nc3ccc(C(=O)OCC(CC)CCCC)cc3)nc(Nc3ccc(C(=O)OCC(CC)CCCC)cc3)n2)cc1` (centres unmarked) [2,4,6-trianilino-p-(carbo-2′-ethylhexyl-1′-oxy)-1,3,5-triazine], the “solubility in C12-C15-alcohol benzoate” value (hitherto found) is listed as “about 4%” and the “solubility in customary oils” value (hitherto, PPG-3 myristyl ether) is listed as “at most 13%”.
